Molecules are shown by their SMILES.

This is an account of results in US10261017B2, “Methods for detecting and categorizing skin sensitizers” (University of Mississippi, priority 2014, dated 2019).

The nature of this data set: Microplate spectrophotometric method (DCYA assay), fluorescence end-point. The note with it: RI = reactivity index; 2 equiv. electrophile, pH 10 buffer.

For the compound `O=[N+]([O-])c1ccc(Cl)c([N+](=O)[O-])c1` [1-Chloro-2,4-dinitrobenzene], the “DCYA 100-RI” value amounted to 131.7.
